# Assay: Toxicology of L2-mIgG2a combined with chemotherapy
# Details: tumor-bearing nude mice; for Food consumption: 5-FU 100 mg/kg or IRT 80 mg/kg once per week, without or with 20 mg/kg L2 3× per week; for Food consumption / ALT / Albumin / BUN / Hemoglobin / Organ weight, Brain / Organ weight, Heart / Organ weight, Kidney / Organ weight, Liver / Organ weight, Lung / Organ weight, Spleen / RBC / Total Protein / WBC: Mean ± SD; for Creatine / Total Bilirubin / ALT / Albumin / BUN / Hemoglobin / Organ weight, Brain / Organ weight, Heart / Organ weight, Kidney / Organ weight, Liver / Organ weight, Lung / Organ weight, Spleen / RBC / Total Protein / WBC: 5-FU or IRT schedule without or with 20 mg/kg L2 3× per week
SMILES,Food consumption,Creatine,Total Bilirubin,ALT,Albumin,BUN,Hemoglobin,"Organ weight, Brain","Organ weight, Heart","Organ weight, Kidney","Organ weight, Liver","Organ weight, Lung","Organ weight, Spleen",RBC,Total Protein,WBC
"O=c1[nH]cc(F)c(=O)[nH]1 [Antibody 5-FU, 5-fluorouracil]",29.7 ± 1.9 g/wk,≦0.2 mg/dL,≦0.3 mg/dL,59.2 ± 62.6 U/L,2.7 ± 0.5 g/dL,19.4 ± 1.5 mg/dL,12.4 ± 0.4 g/dL,460 ± 23 mg,126 ± 5 mg,398 ± 27 mg,1412 ± 88 mg,168 ± 15 mg,170 ± 37 mg,8.6 ± 0.4 M/μL,6.0 ± 0.6 g/dL,9.4 ± 4.4 K/μL
"CCc1c2c(nc3ccc(OC(=O)N4CCC(N5CCCCC5)CC4)cc13)-c1cc3c(c(=O)n1C2)COC(=O)[C@]3(O)CC [IRT, irinotecan]",31.9 ± 2.7 g/wk,≦0.2 mg/dL,≦0.3 mg/dL,48.6 ± 25.7 U/L,3.7 ± 0.4 g/dL,20.6 ± 2.7 mg/dL,12.3 ± 1.7 g/dL,464 ± 26 mg,134 ± 13 mg,354 ± 53 mg,1334 ± 226 mg,166 ± 31 mg,134 ± 34 mg,8.1 ± 1.1 M/μL,5.8 ± 0.3 g/dL,4.0 ± 0.9 K/μL
